B1: RAC-alpha serine/threonine-protein kinase (Homo sapiens), P31749 (parent)
chain: MSDVAIVKEGWLHKRGEYIKTWRPRYFLLKNDGTFIGYKERPQDVDQREAPLNNFSVAQCQLMKTERPRPNTFIIRCLQWTTVIERTFHVETPEEREEWTTAIQTVADGLKKQEEEEMDFRSGSPSDNSGAEEMEVSLAKPKHRVTMNEFEYLKLLGKGTFGKVILVKEKATGRYYAMKILKKEVIVAKDEVAHTLTENRVLQNSRHPFLTALKYSFQTHDRLCFVMEYANGGELFFHLSRERVFSEDRARFYGAEIVSALDYLHSEKNVVYRDLKLENLMLDKDGHIKITDFGLCKEGIKDGATMKTFCGTPEYLAPEVLEDNDYGRAVDWWGLGVVMYEMMCGRLPFYNQDHEKLFELILMEEIRFPRTLGPEAKSLLSGLLKKDPKQRLGGGSEDAKEIMQHRFFAGIVWQHVYEKKLSPPFKPQVTSETDTRYFDEEFTAQMITITPPDQDDSMECVDSERRPHFPQFSYSASGTA
partner: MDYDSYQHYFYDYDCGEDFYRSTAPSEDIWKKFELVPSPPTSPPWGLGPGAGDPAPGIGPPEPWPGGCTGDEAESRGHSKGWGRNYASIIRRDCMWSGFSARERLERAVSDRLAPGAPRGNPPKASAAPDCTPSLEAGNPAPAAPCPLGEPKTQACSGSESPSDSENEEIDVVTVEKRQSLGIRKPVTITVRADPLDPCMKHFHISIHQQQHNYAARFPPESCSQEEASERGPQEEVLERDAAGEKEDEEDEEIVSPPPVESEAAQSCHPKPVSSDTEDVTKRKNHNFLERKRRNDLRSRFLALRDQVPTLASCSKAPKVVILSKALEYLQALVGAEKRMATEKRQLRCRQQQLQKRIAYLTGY
B2: RAC-alpha serine/threonine-protein kinase (Homo sapiens), P31749 (parent)
chain: B1 chain
partner: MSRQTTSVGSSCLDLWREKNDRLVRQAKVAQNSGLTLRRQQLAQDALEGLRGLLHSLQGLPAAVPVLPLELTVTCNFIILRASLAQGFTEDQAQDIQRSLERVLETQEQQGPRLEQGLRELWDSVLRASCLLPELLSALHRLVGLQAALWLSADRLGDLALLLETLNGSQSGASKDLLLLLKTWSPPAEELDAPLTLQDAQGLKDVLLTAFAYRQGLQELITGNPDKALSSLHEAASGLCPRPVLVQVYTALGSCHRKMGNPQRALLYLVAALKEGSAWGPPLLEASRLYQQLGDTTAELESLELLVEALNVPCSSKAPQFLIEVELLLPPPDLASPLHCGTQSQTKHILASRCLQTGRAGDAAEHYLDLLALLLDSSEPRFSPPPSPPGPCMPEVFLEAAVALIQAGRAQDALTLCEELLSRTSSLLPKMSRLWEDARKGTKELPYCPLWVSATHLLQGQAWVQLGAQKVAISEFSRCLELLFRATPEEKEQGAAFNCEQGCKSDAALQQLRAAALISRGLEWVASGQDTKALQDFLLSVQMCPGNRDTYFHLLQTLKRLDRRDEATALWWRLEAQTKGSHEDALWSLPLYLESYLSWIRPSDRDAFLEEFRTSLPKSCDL
B3: RAC-alpha serine/threonine-protein kinase (Homo sapiens), P31749 (parent)
chain: B1 chain
partner: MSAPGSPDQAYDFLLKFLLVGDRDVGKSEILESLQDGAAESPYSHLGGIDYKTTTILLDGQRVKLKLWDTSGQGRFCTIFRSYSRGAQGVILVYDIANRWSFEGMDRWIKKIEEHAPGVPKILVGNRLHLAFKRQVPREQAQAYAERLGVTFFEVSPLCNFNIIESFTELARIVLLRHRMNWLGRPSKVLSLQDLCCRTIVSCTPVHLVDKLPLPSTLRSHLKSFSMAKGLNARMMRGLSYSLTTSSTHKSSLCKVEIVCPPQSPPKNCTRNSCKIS
B4: RAC-alpha serine/threonine-protein kinase (Homo sapiens), P31749 (parent)
chain: B1 chain
partner: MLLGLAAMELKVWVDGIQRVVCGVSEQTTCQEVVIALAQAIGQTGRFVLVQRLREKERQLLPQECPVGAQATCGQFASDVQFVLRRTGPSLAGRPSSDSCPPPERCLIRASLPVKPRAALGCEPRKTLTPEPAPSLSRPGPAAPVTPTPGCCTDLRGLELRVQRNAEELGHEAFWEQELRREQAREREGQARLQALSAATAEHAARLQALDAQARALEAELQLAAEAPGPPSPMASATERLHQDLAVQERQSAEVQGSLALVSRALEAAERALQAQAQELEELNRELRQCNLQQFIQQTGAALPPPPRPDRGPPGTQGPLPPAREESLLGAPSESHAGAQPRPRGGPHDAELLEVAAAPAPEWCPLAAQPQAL
B5: RAC-alpha serine/threonine-protein kinase (Homo sapiens), P31749 (parent)
chain: B1 chain
partner: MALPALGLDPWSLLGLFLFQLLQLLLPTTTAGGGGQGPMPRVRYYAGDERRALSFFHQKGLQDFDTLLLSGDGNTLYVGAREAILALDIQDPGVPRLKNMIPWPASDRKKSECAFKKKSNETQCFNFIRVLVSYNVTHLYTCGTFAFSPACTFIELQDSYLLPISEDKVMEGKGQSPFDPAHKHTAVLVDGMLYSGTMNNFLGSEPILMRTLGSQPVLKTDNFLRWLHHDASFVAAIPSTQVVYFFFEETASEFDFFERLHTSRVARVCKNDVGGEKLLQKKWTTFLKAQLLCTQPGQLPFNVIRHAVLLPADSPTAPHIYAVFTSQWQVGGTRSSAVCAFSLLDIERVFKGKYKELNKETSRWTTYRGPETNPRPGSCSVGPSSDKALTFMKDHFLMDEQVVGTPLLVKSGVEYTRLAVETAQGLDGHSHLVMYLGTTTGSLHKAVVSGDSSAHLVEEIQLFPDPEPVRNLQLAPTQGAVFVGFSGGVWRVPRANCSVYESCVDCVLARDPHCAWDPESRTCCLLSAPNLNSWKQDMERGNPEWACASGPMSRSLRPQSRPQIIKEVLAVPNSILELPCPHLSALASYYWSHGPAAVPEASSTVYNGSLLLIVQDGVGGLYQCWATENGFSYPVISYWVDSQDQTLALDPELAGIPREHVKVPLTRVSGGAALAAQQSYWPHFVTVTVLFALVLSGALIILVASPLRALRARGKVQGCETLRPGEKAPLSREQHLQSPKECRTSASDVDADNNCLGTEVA
B6: RAC-alpha serine/threonine-protein kinase (Homo sapiens), P31749 (parent)
chain: B1 chain
partner: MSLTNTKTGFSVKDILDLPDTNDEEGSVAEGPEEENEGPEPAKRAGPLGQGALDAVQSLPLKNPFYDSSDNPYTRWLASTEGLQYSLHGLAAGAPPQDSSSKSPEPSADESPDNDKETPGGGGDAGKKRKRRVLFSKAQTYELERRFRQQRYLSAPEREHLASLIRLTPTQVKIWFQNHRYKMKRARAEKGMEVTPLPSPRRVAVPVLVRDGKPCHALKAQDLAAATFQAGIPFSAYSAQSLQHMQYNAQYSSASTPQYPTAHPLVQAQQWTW
B7: RAC-alpha serine/threonine-protein kinase (Homo sapiens), P31749 (parent)
chain: B1 chain
partner: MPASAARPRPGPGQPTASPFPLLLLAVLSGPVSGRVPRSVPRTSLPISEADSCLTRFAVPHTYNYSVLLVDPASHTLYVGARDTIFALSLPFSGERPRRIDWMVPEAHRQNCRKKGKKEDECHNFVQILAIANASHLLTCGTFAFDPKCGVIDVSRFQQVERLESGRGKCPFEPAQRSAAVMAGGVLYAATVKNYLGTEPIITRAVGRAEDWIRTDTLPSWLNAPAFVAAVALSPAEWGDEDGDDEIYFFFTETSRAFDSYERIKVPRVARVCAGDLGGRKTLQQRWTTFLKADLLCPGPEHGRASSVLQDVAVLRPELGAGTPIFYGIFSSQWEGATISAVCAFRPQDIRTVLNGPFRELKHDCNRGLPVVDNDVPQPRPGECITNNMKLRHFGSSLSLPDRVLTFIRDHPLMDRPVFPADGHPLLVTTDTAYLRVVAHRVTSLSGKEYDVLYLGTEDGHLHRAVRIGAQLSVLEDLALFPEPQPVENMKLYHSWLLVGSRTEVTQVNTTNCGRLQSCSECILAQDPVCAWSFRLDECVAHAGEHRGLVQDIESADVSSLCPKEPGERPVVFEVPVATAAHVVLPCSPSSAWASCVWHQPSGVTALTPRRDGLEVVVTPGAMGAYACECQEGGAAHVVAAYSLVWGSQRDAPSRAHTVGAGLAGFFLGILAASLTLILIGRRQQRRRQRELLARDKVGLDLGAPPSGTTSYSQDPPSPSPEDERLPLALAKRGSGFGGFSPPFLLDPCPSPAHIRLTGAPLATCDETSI
B8: RAC-alpha serine/threonine-protein kinase (Homo sapiens), P31749 (parent)
chain: B1 chain
partner: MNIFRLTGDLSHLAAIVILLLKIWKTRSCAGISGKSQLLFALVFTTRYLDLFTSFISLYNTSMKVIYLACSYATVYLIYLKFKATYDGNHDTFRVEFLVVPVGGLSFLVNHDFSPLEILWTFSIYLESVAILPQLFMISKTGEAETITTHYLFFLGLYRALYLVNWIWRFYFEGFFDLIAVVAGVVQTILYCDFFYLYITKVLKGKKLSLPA
B9: RAC-alpha serine/threonine-protein kinase (Homo sapiens), P31749 (parent)
chain: B1 chain
partner: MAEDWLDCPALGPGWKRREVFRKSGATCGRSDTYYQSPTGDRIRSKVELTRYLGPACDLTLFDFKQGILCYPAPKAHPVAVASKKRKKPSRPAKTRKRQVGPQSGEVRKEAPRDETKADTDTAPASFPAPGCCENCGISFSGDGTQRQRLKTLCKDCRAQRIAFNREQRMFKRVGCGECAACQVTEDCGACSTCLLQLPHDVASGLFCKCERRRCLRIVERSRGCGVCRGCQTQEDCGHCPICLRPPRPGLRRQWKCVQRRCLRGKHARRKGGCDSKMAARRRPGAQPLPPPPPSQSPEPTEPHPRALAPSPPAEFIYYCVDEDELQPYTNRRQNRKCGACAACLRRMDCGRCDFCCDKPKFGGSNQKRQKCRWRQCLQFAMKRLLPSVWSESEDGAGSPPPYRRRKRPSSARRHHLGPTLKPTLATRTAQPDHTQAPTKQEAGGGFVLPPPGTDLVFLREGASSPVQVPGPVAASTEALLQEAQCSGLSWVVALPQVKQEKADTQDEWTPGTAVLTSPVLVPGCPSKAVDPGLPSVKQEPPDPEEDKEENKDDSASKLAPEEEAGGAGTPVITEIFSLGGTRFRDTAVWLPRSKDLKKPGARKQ
B10: RAC-alpha serine/threonine-protein kinase (Homo sapiens), P31749 (parent)
chain: B1 chain
partner: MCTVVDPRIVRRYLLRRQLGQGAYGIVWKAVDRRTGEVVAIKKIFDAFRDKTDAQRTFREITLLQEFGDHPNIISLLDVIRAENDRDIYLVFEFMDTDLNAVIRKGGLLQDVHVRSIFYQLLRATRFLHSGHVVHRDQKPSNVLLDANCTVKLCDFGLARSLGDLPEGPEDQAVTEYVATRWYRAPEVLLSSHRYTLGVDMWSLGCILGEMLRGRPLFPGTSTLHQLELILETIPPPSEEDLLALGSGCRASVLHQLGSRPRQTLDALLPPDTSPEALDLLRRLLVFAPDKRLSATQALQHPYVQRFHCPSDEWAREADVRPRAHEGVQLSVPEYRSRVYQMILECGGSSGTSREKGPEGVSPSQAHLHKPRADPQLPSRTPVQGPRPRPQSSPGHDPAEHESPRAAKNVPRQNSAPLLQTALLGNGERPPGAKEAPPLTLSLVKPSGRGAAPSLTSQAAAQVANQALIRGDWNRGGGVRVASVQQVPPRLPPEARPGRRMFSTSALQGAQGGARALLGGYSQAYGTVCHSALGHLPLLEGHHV

Variants of: B1
Conditions: with mycl_human MYCL

Variant	effect of a mutation on the interaction
E17K	with no effect

Variants of: B2
Conditions: with fancg_human FANCG

Variant	effect of a mutation on the interaction
E17K	with no effect

Variants of: B3
Conditions: with rb40a_human RAB40A

Variant	effect of a mutation on the interaction
E17K	with no effect

Variants of: B4
Conditions: with rasf7_human RASSF7, Q02833

Variant	effect of a mutation on the interaction
E17K	causing an interaction

Variants of: B5
Conditions: with sem4a_human SEMA4A

Variant	effect of a mutation on the interaction
E17K	causing an interaction

Variants of: B6
Conditions: with nkx22_human NKX2-2, O95096

Variant	effect of a mutation on the interaction
E17K	with no effect

Variants of: B7
Conditions: with sem4f_human SEMA4F

Variant	effect of a mutation on the interaction
E17K	causing an interaction

Variants of: B8
Conditions: with erd22_human KDELR2, P33947

Variant	effect of a mutation on the interaction
E17K	with no effect

Variants of: B9
Conditions: with mbd1_human MBD1, Q9UIS9

Variant	effect of a mutation on the interaction
E17K	with no effect

Variants of: B10
Conditions: with mk15_human MAPK15, Q8TD08

Variant	effect of a mutation on the interaction
E17K	causing an interaction

Variants of: B10
Conditions: with mk15_human MAPK15, Q8TD08
Remark: another data set of the same source

Variant	effect of a mutation on the interaction
E17K	increasing interaction strength

Source: IntAct's records for PubMed 35512704
